Patent US11266766B2, “Situ expansion of engineered devices for regeneration” (Massachusetts Institute of Technology, priority 2015, dated 2022)

Test system: CYP34A expression
Details: animals bearing expanded grafts and injured livers, vs vehicle control

CO[C@H]1/C=C/O[C@@]2(C)Oc3c(C)c(O)c4c(O)c(c(/C=N/N5CCN(C)CC5)c(O)c4c3C2=O)NC(=O)/C(C)=C\C=C\[C@H](C)[C@H](O)[C@@H](C)[C@@H](O)[C@@H](C)[C@H](OC(C)=O)[C@@H]1C [Rifampin]
CYP34A expression in grafts: induced
